The source of these data is patent publication US20180015170A1, “CYCLODEXTRIN-BASED POLYMERS FOR THERAPEUTIC DELIVERY” (CERULEAN PHARMA INC., priority 2012, published 2018).

The nature of this series: Tolerability (body weight) in the B16.F10 murine melanoma model. As to conditions: 15 mg/kg IV, three injections over 2 weeks (twice per week); listed as CDP-Gly-DTX nanoparticle formulation.

In the case of “CDP-2′-glycine-docetaxel [CDP-Gly-DTX formulation]”, the “Maximum body weight loss (%)” value is reported as “did not cause any significant body weight loss”.
